Reference: US8592383B2, “Cycloalkyl-fused tetrahydroquinolines as CRTH2 receptor modulators” (Merck Sharp & Dohme Corp., priority 2011, dated 2013)
Read-outs that look alike come from different tables or passages of the source.

Columns and labels:
hCRTH2 [1] = biological target: T1, hCRTH2 (Homo sapiens, UniProt Q9Y5Y4); parameters: expressed in transfected cells; host or cells: HEK (human embryonic kidney) cells expressing hCRTH2; settings: Radioligand Binding Assay B
T1 sequence (Q9Y5Y4 1-395): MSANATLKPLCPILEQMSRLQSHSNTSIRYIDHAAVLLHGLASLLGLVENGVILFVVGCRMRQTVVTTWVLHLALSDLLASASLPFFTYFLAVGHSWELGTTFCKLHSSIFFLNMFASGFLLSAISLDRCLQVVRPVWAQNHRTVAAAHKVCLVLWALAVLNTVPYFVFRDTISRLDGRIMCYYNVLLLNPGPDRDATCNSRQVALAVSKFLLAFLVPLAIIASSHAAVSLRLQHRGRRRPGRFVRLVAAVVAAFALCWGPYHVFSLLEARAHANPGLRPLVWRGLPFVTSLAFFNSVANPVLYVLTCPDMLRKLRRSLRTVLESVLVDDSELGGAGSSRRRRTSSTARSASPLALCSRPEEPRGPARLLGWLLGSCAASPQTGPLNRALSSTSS
Procedure: The filters were then washed with 4 mL of the same buffer and residual radioligand bound to the filter was determined by liquid scintillation counting following equilibration in 25 μl Ultima Gold F™ (Unifilter) (Packard).

hCRTH2 [2] = biological target: T1, hCRTH2; test: biochemical; settings: Radioligand Binding Assay A, 3.0 nM [3H]PGD2, HEK-hCRTH2 membranes

Structure (SMILES)	Ki (hCRTH2 [1]; 0.7 nM [3H]PGD2, HEK-hCRTH2 membranes) [nM]	Ki (hCRTH2 [1]; Table B, rated A-D) [nM]	Ki (hCRTH2 [2]) [nM]
O=C(O)CCC(=O)N(C1CC1)C1c2ccccc2N(C(=O)c2ccc(OC(F)(F)F)cc2)C2CCC21 (racemic) [compound 27, 4-{Cyclopropyl[cis,cis-3-{[4-(trifluoromethoxy)phenyl]carbonyl}-1,2,2a,3,8,8a-hexahydrocyclobuta[b]quinolin-8-yl]amino}-4-oxobutanoic acid]	7.7	5.1 to 20	
O=C(O)CCC(=O)N(C1CC1)[C@@H]1c2cc(CO)ccc2N(C(=O)c2ccc(OC(F)(F)F)cc2)[C@@H]2CCC[C@@H]21 (single isomer, unassigned) [compound 55, 4-(Cyclopropyl((cis,cis,)-7-(hydroxymethyl)-4-(4-(trifluoromethoxy)benzoyl)-2,3,3a,4,9,9a-hexahydro-1H-cyclopenta[b]quinolin-9-yl)amino)-4-oxobutanoic acid]			37.7
